Experimental data taken from ChEMBL document CHEMBL1128506, “Synthesis and dopaminergic activity of pyridine analogs of 5-hydroxy-2-(di-n-propylamino)tetralin” (J Med Chem, 1995).

The chains behind the UniProt entries cited, without tags or fusion partners.
UniProt P14416, whole entry: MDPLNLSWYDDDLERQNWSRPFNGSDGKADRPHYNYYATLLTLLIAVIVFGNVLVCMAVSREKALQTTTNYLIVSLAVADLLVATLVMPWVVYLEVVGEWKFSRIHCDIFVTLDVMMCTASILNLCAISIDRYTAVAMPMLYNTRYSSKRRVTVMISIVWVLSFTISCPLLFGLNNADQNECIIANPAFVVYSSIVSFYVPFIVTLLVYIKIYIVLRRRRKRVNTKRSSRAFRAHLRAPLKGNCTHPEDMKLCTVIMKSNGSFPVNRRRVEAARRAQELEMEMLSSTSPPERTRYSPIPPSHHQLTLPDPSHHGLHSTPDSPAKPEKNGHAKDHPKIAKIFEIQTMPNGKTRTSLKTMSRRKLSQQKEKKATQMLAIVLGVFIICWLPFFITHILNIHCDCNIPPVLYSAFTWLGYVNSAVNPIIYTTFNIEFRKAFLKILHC
UniProt P35462, whole entry: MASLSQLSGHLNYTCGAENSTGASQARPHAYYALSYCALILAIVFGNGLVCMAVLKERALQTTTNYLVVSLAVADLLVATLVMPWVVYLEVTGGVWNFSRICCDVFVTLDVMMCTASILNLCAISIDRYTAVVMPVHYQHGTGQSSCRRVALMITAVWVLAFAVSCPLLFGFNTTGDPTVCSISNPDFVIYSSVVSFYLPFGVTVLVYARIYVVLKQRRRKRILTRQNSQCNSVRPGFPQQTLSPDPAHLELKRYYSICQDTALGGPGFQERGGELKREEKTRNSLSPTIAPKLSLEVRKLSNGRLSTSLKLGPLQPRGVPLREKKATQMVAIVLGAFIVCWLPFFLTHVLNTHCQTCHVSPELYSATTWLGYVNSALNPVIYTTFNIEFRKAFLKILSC

Experiments:
Type in all cases: cell-based
D(2) dopamine receptor [1] = target: T1, D(2) dopamine receptor (Homo sapiens, UniProt P14416); test: In vitro binding affinity is the ability to displace [3H]spiperone from human Dopamine receptor D2 expressed in CHO-K1 cells
Method in brief: (§1)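 Human D2L receptor expressed in CHO-K1 cells grown in F-12 medium with 10% fetal bovine serum under 5% CO2/95% air. Binding measured by displacement of [3H]spiperone (antagonist ligand) or [3H]N-0437 (agonist ligand); n = 3-4.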

D(3) dopamine receptor = D(3) dopamine receptor (Homo sapiens, UniProt P35462); test: In vitro binding affinity is the ability to displace [3H]spiperone from human Dopamine receptor D3 expressed in CHO-K1 cells.
D(2) dopamine receptor [2] = target: T1, D(2) dopamine receptor; test: In vitro binding affinity is the ability to displace [3H]N-0437 from human Dopamine receptor D2 expressed in CHO-K1 cells; method in brief: as §1

Which Ki (D(2) dopamine receptor [1]) does the source give for `CCCN(CCC)C1CCc2c(O)cccc2C1` (stereo not drawn) [5-OH-DPAT] here?
The Ki was 26 nM.

And the Ki (D(3) dopamine receptor)?
The Ki was 0.66 nM.

And the Ki (D(2) dopamine receptor [2])?
Its Ki is 6 nM.
